Reference: patent US12180193B2, “Accelerating fibrosarcoma protein degrading compounds and associated methods of use” (Arvinas Operations, Inc., priority 2020, dated 2024)

Chains of the proteins cited; added tags and fusions are not shown.
UniProt P15056, whole entry G466V: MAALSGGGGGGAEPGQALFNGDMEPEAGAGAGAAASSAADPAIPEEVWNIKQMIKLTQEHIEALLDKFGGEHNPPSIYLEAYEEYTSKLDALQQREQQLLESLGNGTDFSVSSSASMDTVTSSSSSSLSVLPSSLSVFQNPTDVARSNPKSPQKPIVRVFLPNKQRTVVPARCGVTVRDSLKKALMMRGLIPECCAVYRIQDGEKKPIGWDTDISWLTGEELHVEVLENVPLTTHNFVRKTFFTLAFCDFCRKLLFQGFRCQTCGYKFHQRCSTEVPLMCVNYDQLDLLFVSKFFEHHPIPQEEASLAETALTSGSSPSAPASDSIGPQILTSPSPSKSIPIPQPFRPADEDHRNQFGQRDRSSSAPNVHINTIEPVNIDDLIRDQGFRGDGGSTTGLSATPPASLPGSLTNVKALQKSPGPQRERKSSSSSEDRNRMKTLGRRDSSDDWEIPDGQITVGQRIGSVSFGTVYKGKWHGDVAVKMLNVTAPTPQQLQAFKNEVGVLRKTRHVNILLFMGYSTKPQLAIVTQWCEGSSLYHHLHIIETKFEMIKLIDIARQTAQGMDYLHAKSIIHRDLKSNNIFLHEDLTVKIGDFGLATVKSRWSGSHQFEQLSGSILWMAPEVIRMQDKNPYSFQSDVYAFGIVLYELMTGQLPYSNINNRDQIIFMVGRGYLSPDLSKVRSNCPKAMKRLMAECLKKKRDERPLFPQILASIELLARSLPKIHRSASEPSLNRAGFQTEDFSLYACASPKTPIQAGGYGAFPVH
UniProt P15056, whole entry V600E: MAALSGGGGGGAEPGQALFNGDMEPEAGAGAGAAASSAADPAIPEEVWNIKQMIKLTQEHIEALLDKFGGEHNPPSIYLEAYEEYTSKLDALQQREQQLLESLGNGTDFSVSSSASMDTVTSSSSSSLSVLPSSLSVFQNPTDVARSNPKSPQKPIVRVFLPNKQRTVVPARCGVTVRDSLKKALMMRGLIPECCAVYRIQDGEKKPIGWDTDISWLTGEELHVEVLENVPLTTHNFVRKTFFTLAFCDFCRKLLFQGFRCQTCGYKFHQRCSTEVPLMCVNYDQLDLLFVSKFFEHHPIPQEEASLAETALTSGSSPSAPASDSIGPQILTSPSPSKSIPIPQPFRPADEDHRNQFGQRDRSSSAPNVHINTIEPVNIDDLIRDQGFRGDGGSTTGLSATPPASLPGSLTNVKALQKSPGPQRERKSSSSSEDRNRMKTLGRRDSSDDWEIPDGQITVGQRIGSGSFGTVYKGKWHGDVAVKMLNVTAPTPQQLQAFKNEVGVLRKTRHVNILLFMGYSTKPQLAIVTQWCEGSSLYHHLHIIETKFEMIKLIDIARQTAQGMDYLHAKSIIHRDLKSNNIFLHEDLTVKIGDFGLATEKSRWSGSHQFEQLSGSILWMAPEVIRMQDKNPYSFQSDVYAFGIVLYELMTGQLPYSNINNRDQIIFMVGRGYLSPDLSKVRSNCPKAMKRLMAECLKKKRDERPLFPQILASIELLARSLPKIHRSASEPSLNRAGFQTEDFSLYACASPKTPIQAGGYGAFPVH

What was measured:
BRAF V600E = BRAF V600E (Homo sapiens, UniProt P15056, V600E); test: Cellular assay of target protein degradation, T-Rex 293 cells stably transfected with HA-BRAF_V600E (HA immunofluorescence, high content imaging); details: T-Rex 293 HA-BRAF V600E
Experimental: (§1) Protocol for a cellular assay of target protein degradation (T-Rex 293 cells). T-Rex 293 cells were purchased from Invitrogen (#R71007), and stably transfected with a pcDNA4/TO_HA-BRAF_V600E construct, using 400 ug Zeocin for selection. V600e cells are plated in Dulbecco's Modified Eagle Medium (DMEM; Gibco #11965118) containing 10% fetal bovine serum (FBS; Gibco #16000044) and 1 ng/mL doxycycline (Selleckchem #4163) at a density of 5,000 cells/well in 50 μl on poly-D-lysine (PDL) coated, black clear bottom 96-well plates (Corning #354640) and incubated for 24 hours at 37° C. with 5% C02. The following day 50 ul of tested compound was added at 2x concentration in DMEM with a final concentration ranging from 1 μM to 0.1 nM in 0.1% dimethylsulfoxide (DMSO), and incubated for 24 hours at 37° C. with 5% CO2. At the end of the experimental treatment, the media was flicked off and cells washed once with phosphate-buffered saline (PBS)++ (PBS with CaCl and MgCl) and gently replacing with 200 μl PBS++ per well. […] Plate was wash three times with 200 uL PBS++, and imaged on a high content reader (ImageXpress Micro XLS, Molecular Devices).
(§2) The concentration of exemplary compound that leads to half maximal degradation (DC50) as well as the maximum degradation observed (Dmax, conventionally expressed as a percentage of control), which are below in Table 2 for the exemplary compounds of Table 1.

BRAF G466V = BRAF G466V (Homo sapiens, UniProt P15056, G466V); test: Cellular assay of target protein degradation, T-Rex 293 cells stably transfected with HA-BRAF G466V (HA immunofluorescence, high content imaging); details: T-Rex 293 HA-BRAF G466V
Experimental: as §1, with “a pcDNA4/TO_HA-BRAF G466V” for “a pcDNA4/TO_HA-BRAF_V600E”, “selection. G466V” for “selection. V600e”, “and 0.75” for “and 1”, “5% CO2.” for “5% C02.”, “from 30 nM” for “from 1 μM”, “to 3 pM” for “to 0.1 nM”
as §2

## O=C1CCC(N2Cc3cc([C@@H](O)CN4CC5(C4)CN(c4ccc(-c6cnc7[nH]cc(C(=O)c8c(F)ccc(NS(=O)(=O)N9CC[C@@H](F)C9)c8F)c7c6)cc4)C5)ccc3C2=O)C(=O)N1 (stereo partly shown)
BRAF V600E; maximum degradation observed
  BRaf V600E DMax: A (A ≥ 70)
BRAF V600E; read-out: BRaf V600E DC50, half maximal degradation
  DC50: 5 to 50 nM
BRAF G466V; maximum degradation observed
  BRaf G466V DMax: A (A ≥ 70)
BRAF G466V; read-out: BRaf G466V DC50, half maximal degradation
  DC50: < 1 nM
